This experiment relates to SKBR-3-derived tumor. As to the kind of experiment: in-vivo study of the trastuzumab gel, SKBR3 breast tumor. More on the design: species or system BALB/c Nude mice. Particulars: SC injection. From the text:
The injectable nanocomposite gel carrying biosimilar drug, i.e., trastuzumab, with different dosing concentration designed based on clinical data per dosing, for a subsequent animal study. The breast tumor was cultivated by injection 1×10^7 SKBR3 cells to the right flank region of the mice, and the controls are given below: • Objects: Seven-week-old BALB/c Nude mice (Female) • Quantity: 5 groups, 4 mice for each group, totally 20. • Reagent and Drugs: (1) PBS; (2) free-trastuzumab; (3) 1× trastuzumab gel; (4) 2× trastuzumab gel; (5) 3× trastuzumab gel (for 3-week dose at one injection) • Dose: 25 mg/kg and 50 mg/kg, and 75 mg/kg, one SC injection per week • Injection frequency: Three doses on 2 weeks (Subcutaneous injection) • Injection Volume: 100 ul/20 g • Observation: The body weights of the mice were measured, and the tumor size for each mouse was measured twice a week. • Test period: 2-3 weeks, depending on size change of the breast tumor. • Injection site: subcutaneous site on the left flank region of the mice

Take trastuzumab [free trastuzumab]: the tumor size (first week, from ~100 mm^3, PBS control nearly 1000 mm^3) was 813 mm^3 and the tumor size (second week, PBS control ~1800 mm^3) was ~1500 mm^3.

For the origin of these results see patent US20240226027A1, “PHARMACEUTICAL COMPOSITION IN THE FORM OF AN INJECTABLE NANOCOMPOSITE GEL FOR CO-DELIVERY OF MULTIPLE MEDICINES OR DRUGS” (Nuecology Biomedical Inc., priority 2023, published 2024).
